{"source": "patent US20140363833", "tested_on": "fluorophore-labeled thrombin substrate (fPR-x-S extended with glycine spacers and a C-terminal cysteine) on nanoworms"}
{"substance": "human thrombin (Haematologic Technologies)", "values": [{"measurement": "sample fluorescence (fluorogenic NW protease assay)", "result": "increased sample fluorescence by more than 25-fold within ten minutes"}]}
